C2C12 statin – suppression of simvastatin myotoxicity | actives 0.78% (n = 330,000) | rescue of ATP level, % at 7.49 µM | C2C12 myotubes + simvastatin, ATP luminescence, 48 h; scaled: DMSO 0, geranylgeraniol control 100;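 active = mean ATP rescue above about 67%, or every replicate alone reaching that limit, limit read from the data, passing the limit was not always enough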;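 note: myotubes were challenged with 10 µM simvastatin during compound exposure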
miR-122 sensor – blocks miR-122 activity in Huh7 sensor cells; activation (reporter increase), % at 12.5 µM; Huh7 miR-122 Renilla luciferase sensor, 48 h; neutral wells = 0, positive control = 100; actives 0.3% (n = 340,000);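 active = mean replicate activation score at least 90 and every replicate individually at or above 90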;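 note: higher luciferase means less miR-122 activity so hits act as miR-122 inhibitors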
Yeast UUG start – modulators of start codon recognition fidelity in yeast; S. cerevisiae UUG-firefly luciferase reporter, luminescence/redox ratio; activity score, % at 18.7 µM; hit rate 0.13% among 350,000; AID 602363;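 active = replicate mean at a twofold rise or more, about +100% in these data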;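 note: firefly luciferase made from a UUG start codon reports start codon fidelity; reporter light over untreated wells divided by growth signal over untreated wells; some hits fall short of that in this replicate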
Cneo AK release – causes C. neoformans cell lysis | lysis activity, % at 15 µM | actives 0.2% (n = 360,000) | adenylate kinase release luminescence, 4 h; normalised: neutral wells 0, clomiphene wells 100;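 active = mean lysis activity across replicates of at least 80%, whatever share of replicates individually reach that level; inactive = mean lysis activity below 80%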
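Assay system: C. neoformans cells. Amount: yeast cell density of 5 × 10^6 cells/mL. Technique: AK luminescence. Buffer or medium: YPD. Times: static 4 h at 37 °C with compound, 1 h detection. Dosing: single-point compound dose. Read-out: lysis from increased AK signal.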
N-glyco inh – blocks N-linked glycosylation in D54 reporter cells; D54 ERlucT glycosylation luciferase reporter, 24 h; percent of 100 nM tunicamycin response; reporter increase, % at 12.5 µM; actives 0.23% (n = 360,000); AID 588692;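 active = mean luciferase reporter signal, scaled so untreated is 0 and the glycosylation-blocking control 100, at or above a set limit in every replicate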;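 note: luciferase carries N-glycosylation sites so blocking glycosylation raises the light; 0% = median of neutral control wells and 100% = median of 100 nM tunicamycin wells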
* marks the source's active call; other numbers are inactive results; / = not tested or not shown; [ ] = remark or other dose. Shown are actives, neighbours in structure and some others; about 1.2% of the full set was active somewhere.

[1] Cc1ccc(S(=O)(=O)N/N=C2/CC(c3ccccc3)Oc3ccccc32)cc1 (stereo not drawn)
[2] O=S(=O)(N/N=C1\CC(c2ccccc2)Oc2ccccc21)c1ccccc1 (stereo not drawn)
[3] OC1CCCN(Cc2ccc3ccc4cccc5ccc2c3c45)C1 (stereo not drawn)
[4] CC(=O)Nc1cccc(-c2ccnc3c2CC(C)(C(=O)Nc2ccc(Cl)c(C(F)(F)F)c2)O3)c1 (stereo not drawn)
[5] CC(=O)Nc1cccc(-c2ccnc3c2CC(C)(C(=O)Nc2ccc(F)c(Cl)c2)O3)c1 (stereo not drawn)
[6] COc1ccc(C2C(C(=O)OCC(=O)NC(C)(C)C)CCC(=O)N2c2ccc(C)cc2)cc1OC (stereo not drawn)
[7] COc1ccc(C2C(C(=O)OCC(=O)Nc3ccc(C)cc3)CCC(=O)N2c2ccc(OC)cc2)cc1 (stereo not drawn)
[8] Cc1cc(S(=O)(=O)NCC2CC2)c(Cl)cc1Cl

Compound	1	2	3	4	5	6	7	8
Cneo AK release	0.5	3.3	-0.9	-2.0	1.1	1.6	1.3	0.9
N-glyco inh	-3.9	-0.3	56.8*	-1.9	-1.3	1.4	1.6	-1.2
Yeast UUG start	-18.4	4.8	-20.0	-24.7	2.8	4.9	1.9	-4.9
C2C12 statin	87.8*	-5.7	25.4	80.5*	10.8	2.4	95.3*	9.7
miR-122 sensor	5.9	7.1	/	1.0	-2.3	35.2	-0.4	104.8*

[9] CC(=O)c1cccc(NC(=O)NCc2cccs2)c1
[10] CC(=O)c1cccc(NC(=O)NCc2ccccn2)c1
[11] CC(=O)c1cccc(-c2ccnc3c2CC(C(=O)NCc2cccs2)O3)c1 (stereo not drawn)
[12] Cc1cccc(CN(C)C[C@@H]2OCc3cn(nn3)CCCC(=O)N([C@H](C)CO)C[C@@H]2C)c1
[13] CCCc1cc(Nc2c(C)n(C)n(-c3ccccc3)c2=O)n2c(nc3ccccc32)c1C#N
[14] C/C(CCC(C)C)=N\NS(=O)(=O)c1ccc(C)c([N+](=O)[O-])c1
[15] Cc1ccc(S(=O)(=O)NCCC(C)C)cc1[N+](=O)[O-]
[16] CCOC(=O)C1=C(C)NC(=S)N(C=O)C1c1ccccc1 (stereo not drawn)

Compound	9	10	11	12	13	14	15	16
Cneo AK release	1.1	-7.0	0.1	51.5	0.8	3.0	/	/
N-glyco inh	-0.2	-6.2	34.5*	/	-5.0	0.3	0.9	0.2
Yeast UUG start	-10.8	-62.3	-6.4	/	-19.4	-9.4	/	/
C2C12 statin	-1.8	-0.8	-52.3	-15.2	104.4*	/	-9.0	/
miR-122 sensor	103.3*	13.5	10.0	0.2[16.7 µM]	-14.9	13.9	232.1*	-3.8

[17] CCOC(=O)C1=C(C)NC(=O)C(C(N)=O)C1c1ccccc1 (stereo not drawn)
[18] CN(C)/C=C/C(=O)c1ccc(N2CCN(c3ncc(C(F)(F)F)cc3Cl)CC2)cc1
[19] O=C(OCCOc1ccc(Br)cc1)c1cnccn1
[20] CCc1ccc2[nH]c(=O)c(CN(Cc3ccccc3OC)Cc3nnnn3Cc3ccco3)cc2c1
[21] O=C1c2ccccc2C(=O)c2cc(N3CCCCC3)ccc21
[22] O=S1(=O)C=C(N2CCCCC2)c2ccccc21
[23] O=C(C[C@@H]1CC[C@@H](NC(=O)c2ccc3c(c2)OCO3)[C@@H](CO)O1)NCc1ccc(Oc2ccccc2)cc1
[24] CCCCN1C(=O)C(CC(=O)NCC)SC1=Nc1ccccc1 (stereo not drawn)

Compound	17	18	19	20	21	22	23	24
Cneo AK release	-1.7	3.0	5.4	-0.5	-1.9	0.3	-1.1	0.6
N-glyco inh	3.4	-2.0	1.8	0.3	-19.5	-0.7	/	-0.7
Yeast UUG start	-2.5	-17.3	-7.7	-16.0	-55.3	-8.6	/	-4.3
C2C12 statin	111.1*	133.6*	117.1*	99.6*	-34.0	108.3*	20.0	158.8*
miR-122 sensor	-7.4	5.7	1.6	7.1	/	-4.5	/	-5.7

[25] O=C(O)CC1SC(=Nc2ccccc2)N(c2ccccc2)C1=O (stereo not drawn)
[26] CCNC(=O)CC1SC(=Nc2ccc(C)cc2)N(CC)C1=O (stereo not drawn)
[27] CC(C)CC#Cc1ccc2c(c1)O[C@@H](CN(C)Cc1ccc3c(c1)OCO3)[C@H](C)CN([C@@H](C)CO)S2(=O)=O
[28] Cc1ccc(-c2nnc(OCCN3CCOCC3)c3ccccc23)cc1
[29] CCN(CC)CCOc1nnc(-c2ccc(C)cc2)c2ccccc12
[30] CCOC(=O)/C(C#N)=C/c1cc2cc(C)c(C)cc2nc1Cl
[31] Cc1cc2cc(C=C(C#N)C#N)c(Cl)nc2cc1C
[32] COc1ccc(C(=O)NC(C)Cc2c[nH]c3ccccc23)cc1 (stereo not drawn)

Compound	25	26	27	28	29	30	31	32
Cneo AK release	-4.5	-0.2	-0.8	-0.4	0.2	10.7	-1.9	-0.7
N-glyco inh	0.1	0.7	/	2.4	-4.0	3.2	38.0*	0.0
Yeast UUG start	-16.4	-21.0	1.1	-5.0	-2.1	-20.0	-12.9	-6.2
C2C12 statin	115.3*	-1.1	-94.6	111.4*	7.3	2.5	-2.5	-0.2
miR-122 sensor	-3.8	-2.0	1.9[16.7 µM]	-4.9	-9.4	10.4	-1.2	-1.0

Record cards, as listed above. Values in the order: Cneo AK release | N-glyco inh | Yeast UUG start | C2C12 statin | miR-122 sensor
Record of CCOC(=O)/C(C#N)=C/c1cc2cc(C)c(C)cc2nc1Cl = 10.7 | 3.2 | -20.0 | 2.5 | 10.4
Record of CCNC(=O)CC1SC(=Nc2ccc(C)cc2)N(CC)C1=O (stereo not drawn) = -0.2 | 0.7 | -21.0 | -1.1 | -2.0
Record of Cc1cc2cc(C=C(C#N)C#N)c(Cl)nc2cc1C = -1.9 | 38.0* | -12.9 | -2.5 | -1.2
Record of CC(C)CC#Cc1ccc2c(c1)O[C@@H](CN(C)Cc1ccc3c(c1)OCO3)[C@H](C)CN([C@@H](C)CO)S2(=O)=O = -0.8 | / | 1.1 | -94.6 | 1.9[16.7 µM]

Next section
[33] Cc1noc(C)c1S(=O)(=O)Nc1ccc2c(c1)C(=O)N([C@H](C)CO)C[C@H](C)[C@H](CN(C)Cc1ccncc1)O2
[34] Cc1noc(C)c1S(=O)(=O)Nc1ccc2c(c1)CC(=O)N([C@@H](C)CO)C[C@H](C)[C@H](CN(C)Cc1ccc(-c3ccccc3)cc1)O2
[35] Cc1noc(C)c1S(=O)(=O)Nc1ccc2c(c1)CC(=O)N([C@H](C)CO)C[C@@H](C)[C@@H](CN(C)Cc1ccc(-c3ccccc3)cc1)O2
[36] Cc1noc(C)c1S(=O)(=O)Nc1ccc2c(c1)C(=O)N([C@@H](C)CO)C[C@H](C)[C@H](CN(C)Cc1ccncc1)O2
[37] Cc1noc(C)c1S(=O)(=O)Nc1ccc2c(c1)CC(=O)N([C@H](C)CO)C[C@@H](C)[C@@H](CN(C)Cc1ccc(Cl)c(Cl)c1)O2
[38] CCCNC(=O)N(C)C[C@@H]1Oc2cc(-c3ccc(C)cc3)ccc2S(=O)(=O)N([C@@H](C)CO)C[C@H]1C
[39] ClC(Br)=C(n1cnc2ccccc21)n1cnc2ccccc21
[40] CN(C(=O)n1cnc2ccccc21)c1ccccc1

Compound	33	34	35	36	37	38	39	40
Cneo AK release	91.0*	/	/	-3.0	-8.1	2.1	2.8	/
N-glyco inh	/	/	/	/	/	/	0.0	1.2
Yeast UUG start	12.4	/	/	1.3	14.9	4.4	-14.6	/
C2C12 statin	/	-5.1	98.0*	/	96.9*	7.0	90.0*	/
miR-122 sensor	-4.1[16.7 µM]	7.8[16.7 µM]	4.6[16.7 µM]	-4.3[16.7 µM]	1.5[16.7 µM]	16.4[16.7 µM]	-6.4	/

[41] Cc1csc(NC(=O)CSc2nnc(CCNC(=O)c3cccs3)n2C)n1
[42] Cn1c(CCNC(=O)c2cccs2)nnc1SCC(=O)Nc1nc(-c2ccccc2)cs1
[43] C#CCOCCOCCOCCNc1nc(N2CCOCC2)nc(N2CCN(C(=O)CCCCCCCCCCNC(=O)[C@@H]([C@H](C)CC)n3cc(CCCCCN)nn3)CC2)n1
[44] C[C@H](CO)N1C[C@H](C)[C@H](CN(C)Cc2ccc3c(c2)OCO3)Oc2ccc(NC(=O)CCCCCC(=O)Nc3ccccc3N)cc2CC1=O
[45] C[C@@H]1CN([C@H](C)CO)C(=O)Cc2cc(NC(=O)CCCCCC(=O)Nc3ccccc3N)ccc2O[C@@H]1CN(C)Cc1ccc(-c2ccccc2)cc1

Compound	41	42	43	44	45
Cneo AK release	-1.5	-1.2	-0.7	-2.3	1.0
N-glyco inh	2.4	-0.8	-3.4	/	/
Yeast UUG start	-24.6	-18.8	7.5	-1.7	1.7
C2C12 statin	98.2*	-25.5	98.7*	103.4*	28.6
miR-122 sensor	-4.1	-5.8	-7.4	-0.2[16.7 µM]	-14.4[16.7 µM]
